For orientation: IC50 means the point on the concentration scale where inhibition reaches its midpoint.

By UniProt entry, the sequences of proteins in these tests, tags left out. Residues count along the entry.
UniProt P23458, 866-1154: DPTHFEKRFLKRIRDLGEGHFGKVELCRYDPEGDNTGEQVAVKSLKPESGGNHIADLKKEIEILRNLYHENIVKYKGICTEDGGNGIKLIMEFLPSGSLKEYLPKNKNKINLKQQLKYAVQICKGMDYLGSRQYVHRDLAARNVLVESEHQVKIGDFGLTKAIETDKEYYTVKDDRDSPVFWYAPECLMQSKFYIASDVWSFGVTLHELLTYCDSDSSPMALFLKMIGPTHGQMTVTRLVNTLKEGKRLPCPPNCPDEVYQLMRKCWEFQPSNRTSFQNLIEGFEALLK
UniProt P29597, 888-1187: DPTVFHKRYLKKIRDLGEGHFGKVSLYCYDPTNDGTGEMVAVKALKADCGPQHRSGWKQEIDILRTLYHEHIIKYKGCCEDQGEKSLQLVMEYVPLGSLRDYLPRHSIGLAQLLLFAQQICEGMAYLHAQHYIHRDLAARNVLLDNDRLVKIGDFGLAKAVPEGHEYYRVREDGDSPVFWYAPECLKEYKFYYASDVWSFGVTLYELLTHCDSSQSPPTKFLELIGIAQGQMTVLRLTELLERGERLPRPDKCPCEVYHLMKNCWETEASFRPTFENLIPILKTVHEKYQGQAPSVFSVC

Data on 5 compounds can be found in patent US10059709B2, “Compounds” (Elanco Tiergesundheit AG, priority 2014, dated 2018).

In one experiment the target is GST-JAK1(866-1154) (Homo sapiens (Human), UniProt P23458). Nature of the experiment: Caliper mobility shift kinase assay, JAK1. To be noted: IRS-1 peptide 5 μM, ATP 40 μM, 60 minutes at 30° C. The format is biochemical. An excerpt: (§1) Measurement of the Effect on the JAK Enzyme
(§2) All four kinases of the JAK/TYK-kinase family were used as purified recombinant GST-fusion proteins, containing the active kinase domains. GST-JAK1(866-1154), GST-JAK3(811-1124), and GST-TYK2(888-1187) were expressed and purified by affinity chromatography at the EPK biology unit.
(§3) The kinase assays were based on the Caliper mobility shift assay using the LabChip 3000 systems. This technology is similar to capillary electrophoresis and uses charge driven separation of substrate and product in a microfluidic chip.
(§4) All kinase reactions were performed in 384 well microtiter plates in a total reaction volume of
(§5) 18 μI. The assay plates were prepared with 0.1 μI per well of test compound in the appropriate test concentration, as described under the section “preparation of compound dilutions”. The reactions were started by combining 9 μI of substrate mix (consisting of peptide and ATP) with 9 μI of kinase dilution. The reactions were incubated for 60 minutes at 30° C. and stopped by adding 70 μI of stop buffer (100 mM Hepes, 5% DMSO, 0.1% Coating reagent, 10 mM EDTA, 0.015% Brij 35).
(§6) Fluorescently labeled synthetic peptides were used as substrates in all reactions. A peptide derived from the sequence of IRS-1 (IRS-1 peptide, FITC-Ahx-[…]-NH2) was used for JAK1 and TYK2 and a peptide named JAK3tide (FITC-[…]-NH2) for JAK3. Specific assay conditions are described in Table 4:
(§7) The terminated reactions were transferred to the Caliper LabChip 3000 reader and the turnover of each reaction was measured by determining the substrate/product ratio.
(§8) Preparation of Compound Dilutions
(§9) Test compounds were dissolved in DMSO (10 mM) and transferred into 1.4 mL flatbottom or V-shaped Matrix tubes carrying a unique 2D matrix chip by individual compound hubs. The numbers of these chips were distinctively linked to the individual compound identification numbers. The stock solutions were stored at −20° C. if not used immediately. […]

For the next experiment, the target named is GST-TYK2(888-1187) (Homo sapiens (Human), UniProt P29597). Nature of the experiment: Caliper mobility shift kinase assay, TYK2. To be noted: IRS-1 peptide 5 μM, ATP 30 μM, 60 minutes at 30° C. The format is biochemical.
Source text: as §1, §2, §3, §4, §5, §6, §7, §8, §9

Turning to `CNS(=O)(=O)C[C@H]1CC[C@H](N(C)c2c([N+](=O)[O-])cnc3[nH]ccc23)CC1` [compound 18], the IC50 at GST-JAK1(866-1154) came out at 21 nM.
Turning to `CNS(=O)(=O)C[C@H]1CC[C@H](Nc2c(C#N)cnn3cccc23)CC1` [compound 27], on GST-TYK2(888-1187), the IC50 is 7800 nM.
Turning to `CNS(=O)(=O)C[C@H]1CC[C@H](N(C)c2ncnc3[nH]c(C)nc23)CC1` [compound 1], the IC50 on GST-JAK1(866-1154) is 838 nM; at GST-TYK2(888-1187) it was 5510 nM.
Consider `CNS(=O)(=O)C[C@H]1CC[C@H](Oc2c([N+](=O)[O-])cnc3[nH]ccc23)CC1` [compound 25, N-methyl-1-[trans-4-[(5-nitro-1H-pyrrolo[2,3-b]pyridin-4-yl)oxy]cyclohexyl]methanesulfonamide], for which the IC50 at GST-TYK2(888-1187) was 1100 nM.
For the compound `CNS(=O)(=O)C[C@H]1CC[C@H](Nc2nc(N)ncc2Br)CC1` [compound 13], the IC50 at GST-JAK1(866-1154) was determined as 2000 nM.
